This is an account of results in publication PMC6930522, “Structure-Based Pharmacophore Modeling, Virtual Screening, Molecular Docking and Biological Evaluation for Identification of Potential Poly (ADP-Ribose) Polymerase-1 (PARP-1) Inhibitors” (Molecules, 2019).

The chains behind the UniProt entries cited, without tags or fusion partners.
UniProt P09874, whole entry: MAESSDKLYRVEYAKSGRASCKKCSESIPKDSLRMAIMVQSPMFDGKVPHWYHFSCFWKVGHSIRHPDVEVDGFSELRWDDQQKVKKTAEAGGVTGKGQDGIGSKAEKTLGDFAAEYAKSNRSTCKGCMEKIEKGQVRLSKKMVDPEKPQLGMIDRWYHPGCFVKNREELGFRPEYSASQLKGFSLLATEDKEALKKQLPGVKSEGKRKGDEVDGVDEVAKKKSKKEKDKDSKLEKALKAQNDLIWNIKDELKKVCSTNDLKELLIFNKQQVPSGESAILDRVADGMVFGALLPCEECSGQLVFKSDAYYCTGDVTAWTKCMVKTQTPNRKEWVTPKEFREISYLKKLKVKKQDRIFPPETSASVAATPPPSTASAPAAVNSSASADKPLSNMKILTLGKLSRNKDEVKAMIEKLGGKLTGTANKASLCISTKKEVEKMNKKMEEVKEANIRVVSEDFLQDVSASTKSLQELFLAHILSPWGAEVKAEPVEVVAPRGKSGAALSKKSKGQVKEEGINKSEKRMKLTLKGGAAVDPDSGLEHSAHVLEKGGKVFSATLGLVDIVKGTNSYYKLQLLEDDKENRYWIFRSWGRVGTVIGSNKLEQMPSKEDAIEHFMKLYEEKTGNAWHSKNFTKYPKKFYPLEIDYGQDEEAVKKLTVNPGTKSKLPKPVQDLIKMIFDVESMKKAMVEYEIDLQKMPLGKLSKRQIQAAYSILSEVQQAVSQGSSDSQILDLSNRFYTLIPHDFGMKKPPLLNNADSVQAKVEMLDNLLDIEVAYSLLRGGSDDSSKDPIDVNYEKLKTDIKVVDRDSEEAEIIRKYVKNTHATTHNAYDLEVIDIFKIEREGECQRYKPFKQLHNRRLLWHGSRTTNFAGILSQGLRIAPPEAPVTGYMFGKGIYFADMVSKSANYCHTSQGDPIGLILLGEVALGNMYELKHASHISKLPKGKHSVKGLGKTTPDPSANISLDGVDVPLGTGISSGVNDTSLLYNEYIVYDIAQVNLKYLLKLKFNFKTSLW

In this test the target is T1, PARP-1 (Homo sapiens, UniProt P09874).
T1 construct: purchased Trevigan (Gaithersburg, MD, USA)
The experiment in a line: In vitro PARP inhibition assay (PARP-1). It counts as biochemical. As to conditions: Table 3; PARP-1 enzyme assay, mean ± SD, three independent experiments. The procedure: Purified recombinant human PARPs from Trevigan (Gaithersburg, MD, USA) was used to determine the IC50 values of a PARP inhibitor. The PARP enzyme assay was set up on ice in a volume of 100 μL consisting of 50 mM Tris–HCl (pH 8.0), 2 mM MgCl2, 30 μg/mL of DNase activated herring sperm DNA (Sigma, MO, USA), 30 μM [^3H]nicotinamide adenine dinucleotide (67 mCi/mmol), 75 μg/mL PARP enzyme and various concentrations of the compounds to be tested. The reaction was initiated by incubating the mixture at 25 °C. After 15 min of incubation, the reaction was terminated by adding 500 μL of ice cold 20% (w/v) trichloroacetic acid. The formed precipitate was transferred onto a glass fiber filter (Packard Unifilter–GF/B) and washed three times with ethanol. After the filter is dried, the radioactivity is determined by scintillation counting.

SMILES strings stand for the structures.

Consider `NC(=O)c1cccc2c1C(=O)N(C1CCN(Cc3ccc(F)cc3)CC1)C2` [Compound 1], for which inhibition was half-maximal at 31 ± 5 nM (IC50).
